In PubChem BioAssay AID588499 (NMMLSC, 2011) one finds inhibition data, which are given here for two compounds.

SMILES strings stand for the structures. This is a selection; strong and weak results do not stand in their true shares. Calls of active or inactive are those of the source. No stated cut-off is given here; in the data, active means inhibition above about 30%; inconclusive means no clear call, values can overlap the other calls; inactive means below that.

For the test, the system named is Botulinum neurotoxin type A light chain protease (Clostridium botulinum A str. ATCC 3502). Kind of test: blockers of BoNT/A LC substrate cleavage – biochemical, flow cytometry, MLPCN library, primary screen (AID 588499). Further: plate controls were buffer without enzyme for full effect and enzyme alone for no effect. The settings on record: multiplex microsphere protease substrate cleavage, at 10 µM, hits give high values. In general terms: A flow cytometer gives signals particle by particle.
`CCC(=O)N(c1ccccc1)C1(COC)CCN(CCn2nnn(CC)c2=O)CC1`: the inhibition – broadly, the change of the read-out against control, counted positive when it falls – was inactive: -0.1%.
Next, `CCC(=O)N(c1ccccc1)C1(COC)CCN(CCc2cccs2)CC1`: inactive: -0.5%.
